Literature values as cited in publication PMC12655172, “Borylated 5-Membered Ring Iminosugars: Synthesis and Biological Evaluation for Glycosidase Inhibition and Anticancer Properties for Application in Boron Neutron Capture Therapy (BNCT)—Part 2” (Pharmaceuticals, 2025).

Tests used:
Conditions in all cases: no reference given; cited from earlier work
[1] = target: α-glucosidase (rat maltase)
[2] = target: α-glucosidase (rat isomaltase)
[3] = target: α-glucosidase (rat sucrase)

In the case of `OCC(CO)N[C@H]1C[C@](O)(CO)[C@@H](O)[C@H](O)[C@H]1O` [voglibose], the IC50 [1] is given as 110 nM, the IC50 [2] is given as 160 nM and the IC50 [3] is given as 70 nM.
